Test results taken from patent publication US20100285988A1 (Memorial Sloan Kettering, published 2010).

B1: Aβ17-23BPA^19 (peptide)
peptide: LVFFAED
modifications: p-benzoyl-L-phenylalanine (BPA) in place of Phe at position 19 of Aβ (3rd residue of LVFFAED)
B2: Aβ17-23BPA^20 (peptide)
peptide: LVFFAED
modifications: p-benzoyl-L-phenylalanine (BPA) in place of Phe at position 20 of Aβ (4th residue of LVFFAED)
B3: Aβ17-23BPA^20-biotin (peptide)
peptide: LVFFAED
modifications: p-benzoyl-L-phenylalanine (BPA) in place of Phe at position 20 of Aβ (4th residue of LVFFAED); biotin moiety at the C-terminus
notes: used at 300 nM; also called biotinylated photoreactive peptide Aβ17-23; photoactive peptide

Molecular target: γ-secretase (human; HeLa cell membrane / solubilized HeLa membrane; endogenous in HEK293 cells) (human, UniProt P49768 1-467; Q92542 34-709; Q9NZ42 1-101; Q96BI3 1-265)
Assay: cell-based or functional assay

Binder	IC50, inhibition of γ-secretase activity [nM]	IC50, inhibition of in vitro γ-secretase activity [nM]	further results
LVFFAED [Aβ17-23 (LVFFAED) peptide]	1500	–	IC50, inhibition of in vitro γ-secretase activity on APP substrate (S4): 1500 nM; IC50, inhibition of γ-secretase cleavage of Notch substrate: 10000 nM
LVFF [Aβ17-20 (LVFF) peptide]	940	–	inhibitory potency on in vitro γ-secretase activity, relative to LVFFA: ~6 fold
B1	–	–	inhibitory activity on in vitro γ-secretase, relative to Aβ17-23: 3 fold
B2	–	81	potency on in vitro γ-secretase, relative to Aβ17-23: 19 fold
B3	–	83	–
LVFFA [Aβ17-21 (LVFFA) peptide]	280	–	–
